This data set can be described thus: RP, Waters ACQUITY UPLC BEH C18, 100 × 2.1 mm, 1.7 µm, 0.3 mL/min, estimated dead time 0.73 min; A: water + 0.1% formic acid, pH 3; B: methanol + 0.1% formic acid, pH 3; gradient (min/%B) 0/10 14/90 16/90 18/10. To be noted: stereoisomer not certain.

As to `CCOP(=S)(OCC)Oc1ncn(-c2ccccc2)n1` [Triazophos], the LC retention time was 10.7 min.
